PubChem BioAssay AID651725 (National Center for Advancing Translational Sciences (NCATS), 2012)
This is a selection; strong and weak results do not stand in their true shares. Activity calls are given as the source filed them. Cut-off read from the data, not from the text of the source: active = activity change below about -65%; inconclusive = mostly about -30% to -63%; inactive = weaker than that.

By UniProt entry, the sequences of proteins in these tests, tags left out. Where a name states a change or a piece, a line headed by the entry shows the natural chain unless it says otherwise.
UniProt Q15475: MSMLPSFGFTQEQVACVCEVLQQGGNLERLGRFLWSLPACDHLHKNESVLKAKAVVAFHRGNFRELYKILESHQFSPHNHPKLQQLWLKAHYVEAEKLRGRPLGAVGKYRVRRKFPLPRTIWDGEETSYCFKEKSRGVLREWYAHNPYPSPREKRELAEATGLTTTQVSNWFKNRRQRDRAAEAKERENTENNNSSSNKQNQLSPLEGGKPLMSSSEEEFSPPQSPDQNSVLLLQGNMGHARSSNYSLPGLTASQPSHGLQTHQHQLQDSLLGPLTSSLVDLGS
UniProt O00167: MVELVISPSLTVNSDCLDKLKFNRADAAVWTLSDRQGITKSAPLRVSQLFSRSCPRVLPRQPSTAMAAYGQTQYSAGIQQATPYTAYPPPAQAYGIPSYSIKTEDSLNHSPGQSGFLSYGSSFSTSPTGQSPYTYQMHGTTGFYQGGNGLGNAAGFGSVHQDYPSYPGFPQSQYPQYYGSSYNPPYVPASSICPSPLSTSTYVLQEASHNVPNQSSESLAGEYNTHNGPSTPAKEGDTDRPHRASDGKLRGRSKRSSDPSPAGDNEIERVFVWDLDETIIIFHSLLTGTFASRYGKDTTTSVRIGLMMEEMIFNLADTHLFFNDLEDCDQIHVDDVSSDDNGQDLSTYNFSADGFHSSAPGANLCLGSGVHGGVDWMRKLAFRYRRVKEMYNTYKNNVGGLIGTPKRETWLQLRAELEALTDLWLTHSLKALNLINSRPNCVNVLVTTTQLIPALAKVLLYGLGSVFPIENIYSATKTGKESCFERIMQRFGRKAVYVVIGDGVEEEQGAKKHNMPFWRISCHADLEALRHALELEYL

Each compound was assayed against Homeobox protein SIX1 (Homo sapiens) + Protein phosphatase EYA2 (Homo sapiens) (UniProt Q15475+O00167) (assay: qHTS Assay for Inhibitors of the Six1/Eya2 Interaction). Conditions: AlphaScreen GST-Six1/His-Eya2 binding, biochemical; stronger effect = lower value.
From the text: Its expression is low or undetectable in normal adult breast tissue but the gene is over-expressed in 50% of primary breast tumors and 90% of metastatic lesions. […] Similar to Six1, Eya2 is also not expressed in most normal adult tissues, but is reexpressed in cancers. The Six1-Eya interaction is essential for proliferation during embryonic development, and both Six1 and Eya2 have been independently implicated in the same types of cancer. Because Six1 and Eya2 are embryonic genes with little expression in adult tissues, inhibitors of their expression/activity are likely to have limited side effects. Our goal is to identify inhibitors of the Six1/Eya interaction for potential cancer therapy. To this end, we have developed a homogenous AlphaScreen assay targeting the Six1/Eya interaction. We performed a large scale HTS of the Molecular Libraries Small Molecule Repository (MLSMR) to identify inhibitors of the Six1/Eya interaction as potential anti-cancer therapeutics. Compounds identified can also be used as chemical probes to better understand the biological functions of Six1 and Eya. […]
The first step of the 5 uL AlphaScreen assay is to dispense assay buffer (50 mM Tris, pH 8.0, 300 mM NaCl, 0.05% BSA, 0.02% Tween 20, 1 mM TCEP) into a Greiner 1536 white solid bottom microtiter plate (789175-F). […] The plate is read using a Perkin Elmer Envision using an AlphaScreen protocol.
% is set by controls: 0 for no effect and ±100 for the full control effect.

SMILES	activity change
c1ccc(-c2nn[nH]n2)c(-c2nn[nH]n2)c1	active: -80.8%
